Laboratory results taken from US9409868B2, “Inhibitors of rho associated protein kinases (ROCK) and methods of use” (H. LEE MOFFITT CANCER CENTER AND RESEARCH INSTITUTE, INC., priority 2012, dated 2016).

Amino acid sequences for entries named in this document (tags omitted). A change or cut given only in a name is not applied to a line headed by its entry.
UniProt Q13464: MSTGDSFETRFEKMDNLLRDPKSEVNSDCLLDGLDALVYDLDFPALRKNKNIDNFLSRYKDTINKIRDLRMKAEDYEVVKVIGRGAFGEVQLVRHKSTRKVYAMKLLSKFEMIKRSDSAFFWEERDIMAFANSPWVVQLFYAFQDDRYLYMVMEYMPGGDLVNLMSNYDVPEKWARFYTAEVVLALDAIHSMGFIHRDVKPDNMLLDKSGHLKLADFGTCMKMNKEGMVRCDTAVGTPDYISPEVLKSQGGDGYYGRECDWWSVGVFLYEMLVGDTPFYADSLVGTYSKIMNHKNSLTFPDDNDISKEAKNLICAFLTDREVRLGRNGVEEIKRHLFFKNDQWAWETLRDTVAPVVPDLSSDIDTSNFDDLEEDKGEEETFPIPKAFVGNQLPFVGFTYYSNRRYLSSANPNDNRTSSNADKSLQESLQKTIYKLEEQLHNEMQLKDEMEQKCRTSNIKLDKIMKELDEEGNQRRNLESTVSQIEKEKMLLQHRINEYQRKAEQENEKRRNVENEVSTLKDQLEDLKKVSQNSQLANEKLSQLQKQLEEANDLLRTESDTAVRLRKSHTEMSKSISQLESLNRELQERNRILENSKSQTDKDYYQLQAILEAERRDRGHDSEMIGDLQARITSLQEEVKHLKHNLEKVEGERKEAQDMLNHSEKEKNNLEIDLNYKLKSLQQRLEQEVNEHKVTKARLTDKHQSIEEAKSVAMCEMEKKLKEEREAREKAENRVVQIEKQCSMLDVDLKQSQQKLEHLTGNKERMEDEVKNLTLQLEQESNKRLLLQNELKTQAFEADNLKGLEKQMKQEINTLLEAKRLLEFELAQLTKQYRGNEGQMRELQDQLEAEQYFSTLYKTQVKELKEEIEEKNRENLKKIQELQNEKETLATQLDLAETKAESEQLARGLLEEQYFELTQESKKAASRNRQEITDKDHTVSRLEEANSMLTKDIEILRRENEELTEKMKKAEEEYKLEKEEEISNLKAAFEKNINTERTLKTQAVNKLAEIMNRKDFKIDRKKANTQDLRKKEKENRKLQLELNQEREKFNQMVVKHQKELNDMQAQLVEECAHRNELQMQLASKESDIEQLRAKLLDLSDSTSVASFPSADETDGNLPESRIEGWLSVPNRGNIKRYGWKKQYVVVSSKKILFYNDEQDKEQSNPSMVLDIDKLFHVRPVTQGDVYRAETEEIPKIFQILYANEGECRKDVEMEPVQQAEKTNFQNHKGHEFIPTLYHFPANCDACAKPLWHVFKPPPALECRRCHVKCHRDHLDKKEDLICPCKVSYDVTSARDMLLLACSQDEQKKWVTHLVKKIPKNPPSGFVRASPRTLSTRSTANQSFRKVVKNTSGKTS

Columns and labels:
ROCK1 = ROCK1 (Homo sapiens (Human), UniProt Q13464); experiment: Z-Lyte FRET kinase assay, ROCK1; format: biochemical; conditions: for inhibition at 400 µM: compound concentration at 400 μM
Description: (§1) Kinase Assay. A robust FRET-based, enzyme-coupled assay format, Z-Lyte® Kinase Assay Ser/[…] Peptide Kit (Invitrogen, cat. PV3793), was employed in this study to monitor inhibition of ROCK1 (Invitrogen, cat. PV3691) and ROCK2 (Invitrogen, cat. PV3759) enzyme activities. […] The substrate contains both coumarin and fluorescein and only uncleaved […] substrate will undergo FRET. […] A known inhibitor, Y-27632 (Tocris Bioscience, cat. 1254), is used as a control compound.

ROCK2 = ROCK2 (Homo sapiens (Human), UniProt O75116); experiment: Z-Lyte FRET kinase assay, ROCK2; format: biochemical; conditions: for inhibition at 400 µM: compound concentration at 400 μM; for fold decrease of ROCK 2 inhibitory activity: relative to nicotinamide 3
Description: as §1

LE (Ligand Efficiency), ROCK1 (ROCK1)	LE (Ligand Efficiency), ROCK2 (ROCK2)	SMILES	also measured
–	–	O=C(Nc1ccncc1)c1ccccn1 [Compound 1, N-(Pyridin-4-yl)picolinamide]	inhibition at 400 µM (ROCK1): 30 to 40%; inhibition at 400 µM (ROCK2): 30 to 40%
–	–	O=C(Nc1ccncc1)c1ccncc1 [Compound 2, N-(pyridin-4-yl)isonicotinamide]	inhibition at 400 µM (ROCK1): 30 to 40%; inhibition at 400 µM (ROCK2): 30 to 40%
0.37	0.39	O=C(Nc1ccncc1)c1cccnc1 [Compound 3, N-(Pyridin-4-yl)nicotinamide]	–
0.35	0.31	O=C(Nc1ccncc1)c1cnccc1Cl [Compound 4, 4-Chloro-N-(pyridin-4-yl)nicotinamide]	fold decrease of ROCK 2 inhibitory activity (ROCK2): 4 fold
0.30	0.29	O=C(Nc1ccncc1)c1cncc(Br)c1 [Compound 5, 5-Bromo-N-(pyridin-4-yl)nicotinamide]	fold decrease of ROCK 1 inhibitory activity (ROCK1; relative to nicotinamide 3): up to six fold; fold decrease of ROCK 2 inhibitory activity (ROCK2): up to six fold
0.27	0.32	CN(CCc1ccccc1)C(=O)Nc1ccc2[nH]ncc2c1 [Compound 13, 3-(1H-Indazol-5-yl)-1-methyl-1-phenethylurea]	–
0.31	0.33	O=C(Nc1ccc2[nH]ncc2c1)N[C@H](CO)Cc1ccccc1 [Compound 14, (S)-1-(1-Hydroxy-3-phenylpropan-2-yl)-3-(1H-indazol-5-yl)urea]	–
0.33	0.36	COc1ccc(CCNC(=O)Nc2ccc3[nH]ncc3c2)cc1 [Compound 16, 1-(1H-Indazol-5-yl)-3-(4-methoxyphenethyl)urea]	–
–	–	O=C(NCCc1ccccc1)Nc1ccc2[nH]ncc2c1 [Compound 18, 1-(1H-Indazol-5-yl)-3-phenethylurea]	IC50 (ROCK1; triplicate experiments): 650 nM; IC50 (ROCK2; triplicate experiments): 670 nM
0.35	0.39	O=C(NCc1ccccc1)Nc1ccc(-c2ccncc2)cc1 [Compound 22, 1-Benzyl-3-(4-(pyridin-4-yl)phenyl)urea]	–
0.32	0.27	O=C(NCCc1ccccc1)Nc1ccc(-c2ccncc2)cc1 [Compound 25, 1-Phenethyl-3-(4-(pyridin-4-yl)phenyl)urea]	selectivity for ROCK 1 over ROCK 2 (ROCK1): Eight-fold
0.31	0.28	O=C(Nc1ccc(-c2ccncc2)cc1)N[C@@H](CO)Cc1ccccc1 [Compound 26, (R)-1-(1-Hydroxy-3-phenylpropan-2-yl)-3-(4-(pyridin-4-yl)phenyl)urea]	selectivity for ROCK 1 over ROCK 2 (ROCK1): four-fold; fold more inhibitory activity towards ROCK 1 (ROCK1; 26 (R) versus 27 (S)): 22 fold; fold more active towards ROCK 2 (ROCK2; 26 (R) versus 27 (S)): six fold
0.24	0.23	O=C(Nc1ccc(-c2ccncc2)cc1)N[C@H](CO)Cc1ccccc1 [Compound 27, (S)-1-(1-Hydroxy-3-phenylpropan-2-yl)-3-(4-(pyridin-4-yl)phenyl)urea]	–
